Columns and labels:
Format in all cases: functional, cell-based
P2Y purinoceptor 6 = P2Y purinoceptor 6 (Homo sapiens, UniProt Q15077); test: Agonist activity at human recombinant P2Y6 receptor expressed in 1321N1 cells assessed as PLC-mediated [3H]IP production relative to UDP
Method in brief: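 Stable 1321N1 astrocytoma line expressing human P2Y6, grown to confluence and labelled 12 h in serum-free, inositol-free DMEM with 0.4 μCi myo-[3H]inositol. Agonists were added in Hepes pH 7.3 with LiCl for 20 min at 37 °C. The reaction was stopped with ice-cold 50 mM formic acid, neutralised with NH4OH, and [3H]inositol phosphates separated on Dowex AG 1-X8. EC50 came from four-parameter logistic fits; ratio to UDP EC50. Triplicates, ≥3 experiments.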

Chains of the proteins cited; added tags and fusions are not shown. Lines headed by an entry give the natural chain unless they say otherwise; changes in a name come on top.
UniProt Q15077: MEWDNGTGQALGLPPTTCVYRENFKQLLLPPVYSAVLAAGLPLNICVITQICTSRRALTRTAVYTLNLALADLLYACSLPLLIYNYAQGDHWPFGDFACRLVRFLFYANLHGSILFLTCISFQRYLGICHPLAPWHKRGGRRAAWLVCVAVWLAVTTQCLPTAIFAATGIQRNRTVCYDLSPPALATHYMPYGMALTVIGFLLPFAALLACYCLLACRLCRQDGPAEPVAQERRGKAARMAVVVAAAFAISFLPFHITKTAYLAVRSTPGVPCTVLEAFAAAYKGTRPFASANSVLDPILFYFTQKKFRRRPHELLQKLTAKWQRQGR
UniProt P41231: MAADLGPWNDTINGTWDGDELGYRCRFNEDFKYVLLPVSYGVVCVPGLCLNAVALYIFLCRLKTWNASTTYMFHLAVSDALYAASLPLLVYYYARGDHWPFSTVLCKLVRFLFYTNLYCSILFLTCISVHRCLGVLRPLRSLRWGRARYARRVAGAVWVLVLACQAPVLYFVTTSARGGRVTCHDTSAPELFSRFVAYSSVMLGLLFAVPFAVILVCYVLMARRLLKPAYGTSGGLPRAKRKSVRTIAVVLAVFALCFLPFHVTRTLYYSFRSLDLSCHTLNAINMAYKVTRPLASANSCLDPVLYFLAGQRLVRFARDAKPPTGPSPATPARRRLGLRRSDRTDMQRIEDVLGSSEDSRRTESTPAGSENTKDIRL
UniProt P51582: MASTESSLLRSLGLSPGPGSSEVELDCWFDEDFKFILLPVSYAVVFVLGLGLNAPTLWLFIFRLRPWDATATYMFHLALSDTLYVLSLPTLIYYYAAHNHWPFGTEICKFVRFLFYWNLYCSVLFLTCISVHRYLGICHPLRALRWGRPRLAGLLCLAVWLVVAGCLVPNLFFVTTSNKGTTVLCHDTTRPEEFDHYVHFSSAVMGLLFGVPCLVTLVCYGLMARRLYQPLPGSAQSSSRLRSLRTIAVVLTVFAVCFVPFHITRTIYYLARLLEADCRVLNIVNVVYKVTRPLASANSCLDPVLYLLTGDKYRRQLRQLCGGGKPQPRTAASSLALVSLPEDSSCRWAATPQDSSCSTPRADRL

P2Y purinoceptor 2 = P2Y purinoceptor 2 (Homo sapiens, UniProt P41231); test: Agonist activity at human recombinant P2Y2 receptor expressed in 1321N1 cells assessed as PLC-mediated [3H]IP production relative to UTP
P2Y purinoceptor 4 = P2Y purinoceptor 4 (Homo sapiens, UniProt P51582); test: Agonist activity at human recombinant P2Y4 receptor expressed in 1321N1 cells assessed as PLC-mediated [3H]IP production relative to UTP

Ratio EC50 (P2Y purinoceptor 6): 130
Ratio EC50 (P2Y purinoceptor 2): 22
Ratio EC50 (P2Y purinoceptor 4): 26
Structure (SMILES): O=c1ccn([C@H]2C[C@H](O)[C@@H](COP(=O)(O)OP(=O)(O)O)O2)c(=O)[nH]1

— ChEMBL document CHEMBL1149485, “Structure-activity relationships of uridine 5'-diphosphate analogues at the human P2Y6 receptor” (J Med Chem, 2006)
